The values below come from ChEMBL document CHEMBL5726652, “Oxazole orexin receptor antagonists” (2017).

The chains behind the UniProt entries cited, without tags or fusion partners.
UniProt O43614, whole entry: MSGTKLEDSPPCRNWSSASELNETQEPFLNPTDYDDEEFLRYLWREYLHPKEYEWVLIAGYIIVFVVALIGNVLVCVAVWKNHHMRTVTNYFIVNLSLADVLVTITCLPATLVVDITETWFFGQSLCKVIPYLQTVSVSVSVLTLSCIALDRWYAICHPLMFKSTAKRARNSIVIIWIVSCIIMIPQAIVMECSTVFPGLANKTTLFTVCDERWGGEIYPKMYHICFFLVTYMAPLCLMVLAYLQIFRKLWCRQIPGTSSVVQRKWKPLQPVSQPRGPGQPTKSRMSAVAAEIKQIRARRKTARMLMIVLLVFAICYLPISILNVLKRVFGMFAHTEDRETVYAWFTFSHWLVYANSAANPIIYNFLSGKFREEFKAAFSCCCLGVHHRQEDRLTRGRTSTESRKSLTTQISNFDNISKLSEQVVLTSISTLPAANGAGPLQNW

For the assay, the target named is Orexin receptor type 2 (Homo sapiens, UniProt O43614). As to the kind of experiment: FLIPR Ca2+ Flux Assay: For intracellular calcium measurements, Chinese hamster ovary (CHO) cells expressing the rat orexin-1 receptor or the human orexin-2 receptor, are grown in Iscove's modified DMEM containing 2 mM L-glutamine, […], 1% hypoxanthine-thymidine supplement, 100 U/ml penicillin, 100 μg/ml streptomycin and 10% heat-inactivated fetal calf serum (FCS). The cells are seeded at 20,000 cells/well into Becton-Dickinson black 384-well clear bottom sterile plates coated with poly-D-lysine. All reagents were from GIBCO-Invitrogen Corp. The seeded plates are incubated overnight at 37° C. and 5% CO2. Ala-6,12 human orexin-A as the agonist is prepared as a 1 mM stock solution in 1% bovine serum albumin (BSA) and diluted in assay buffer (HBSS containing 20 mM HEPES, 0.1% BSA and 2.5 mM probenecid, pH7.4) for use in the assay at a final concentration of 70 pM. Test compounds are prepared as 10 mM stock solution in DMSO, then diluted in 384-well plates, first in DMSO, then assay buffer. On the day of the assay, cells are washed 3 times with 100 μl assay buffer and then incubated for 60 min (37° C., 5% CO2) in 60 μl assay buffer containing 1 μM Fluo-4AM ester, 0.02% pluronic acid, and 1% BSA. The dye loading solution is then aspirated and cells are washed 3 times with 100 μl assay buffer. 30 μl of that same buffer is left in each well. […]. Format: cell-based. (Calcium flux is commonly read through the fluorescence of an indicator in the cells.)

SMILES strings stand for the structures.

Usually IC50 stands for the concentration needed to halve the response being measured. With `CC[C@](C)(O)c1nc([C@@H]2CC[C@@H](C)N(C(=O)c3ccsc3-n3nccn3)C2)oc1C`, the half-inhibitory concentration (IC50) came to 15 nM.
